# Assay results taken from US20100178299A1, “METHODS AND COMPOSITIONS FOR IMPROVING IMMUNE RESPONSES” (Northeastern University, priority 2007, published 2010).
# Key:
# TNP-specific IgM [1] = assay: TNP-KLH/CFA immunization with IFA booster, indirect ELISA of TNP-specific IgM (Example 2); type: in vivo, C57B1/6 mice; conditions: combined caffeine (1 mg/ml drinking water) and 60% oxygen
# TNP-specific IgM [2] = conditions: caffeine 1 mg/ml in drinking water, 20 or 60% oxygen, TNP-KLH immunization
smiles,measurement,setting,value
"Cn1c(=O)c2c(ncn2C)n(C)c1=O [caffeine, 1,3,7-trimethylxanthine]","production of immunoglobulins (antigen-specific antibodies, indirect ELISA)",TNP-specific IgM [1],significantly improved production of immunoglobulins
same,production of specific antibodies,TNP-specific IgM [2],can enhance the production of specific antibodies of different classes of immunoglobulins
